# TDP1 block: TDP1 (human) enzyme inhibition; Q9NUW8; recombinant TDP1, AlphaScreen DNA substrate cleavage; Potency, µM (highest dose often 130 µM), without a hit: at the top dose activity change, negative = inhibition, usual class: inhibitors; 0.28% of 350,000 active; AID 485290; note: potency is the fitted concentration of half-maximal effect; % is set by controls: 0 for no effect and ±100 for the full control effect; nearly all actives have a fitted effect of over 40% in size
#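 Tdp1 1 nM final; 15 min RT w/ cpd; substrate 15 nM, 5 min; beads 10 ug/ml, 10 min; AlphaScreen read. Neg ctrl: no enzyme.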
# DT40 TDP1 CPT: DT40-hTDP1 cell growth loss with CPT | AID 686979 | Potency, µM (titrated, usually from 46.2 µM), for inactives: top-dose activity change, negative = growth inhibition, usual class: inhibitors | 12% of 420,000 active | chicken DT40 Tdp1-/-;hTDP1 cells + 20 nM CPT, ATP luminescence, 48 h; note: potency is the fitted concentration of half-maximal effect; % is set by controls: 0 for no effect and ±100 for the full control effect; nearly all actives have a fitted effect of over 55% in size
#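 Chicken DT40 Tdp1-/- cells complemented with human TDP1, 400 cells/well, exposed to compounds plus 20 nM camptothecin for at least 48 h at 37 C; viability read as ATP content by CellTiter-Glo luminescence.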
# miR-21 reporter: raises the signal of a miR-21 reporter; Potency, µM (doses to about 38.3 µM), inactives show top-dose reporter change, positive = more light; HeLa miR-21 FLuc reporter, luciferase, 48 h; AID 2288; 340,000 tested, under 10 active; active = well fitted rising curve with a large enough effect; inconclusive = small, poorly fitted or top-dose-only effect; inactive = no such curve, though single readings can be large or run the other way;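 further: % of control where 0% means no effect; miR-21 action dims this reporter so a rising signal means less miR-21 action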
#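 Compounds were titrated across several concentrations (up to approximately 40 uM) and incubated 48 hours with HeLa miR-21-FLuc reporter cells (miR-21 target sequence downstream of FLuc, endogenous miR-21). Readout was firefly luciferase luminescence after lytic detection reagent.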
# uPA generation: inhibitors of cell surface uPA generation | cell surface uPA generation assay, qHTS | Potency, µM (top dose mostly 38.3 µM), inactives show at the highest dose activity change, negative = inhibition, most hits filed as inhibitors | 0.31% of 330,000 active | AID 540303; active = well fitted inhibition curve with a large enough effect; inconclusive = small, poorly fitted or top-dose-only effect; inactive = no such curve, though single readings can be large or run the other way; tested in mouse RAW 264.7 cells; note: potency is the fitted concentration of half-maximal effect; % is set by controls: 0 for no effect and ±100 for the full control effect; nearly all actives have a fitted effect of over 55% in size
# TDP1 cell noCPT: qHTS for Inhibitors of human tyrosyl-DNA phosphodiesterase 1 (TDP1): qHTS in cells in absence of CPT; AID 686978, 2013; DT40 Tdp1-/- hTDP1 cells, no CPT, ATP luminescence, 48 h; 15% of 420,000 active; Potency, µM (top dose mostly 46.2 µM), for inactives: at the top dose activity change, negative = growth inhibition, most hits filed as inhibitors; note: potency is the fitted concentration of half-maximal effect; % is set by controls: 0 for no effect and ±100 for the full control effect; nearly all actives have a fitted effect of over 55% in size
#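 Cells were dispensed at 400 per well, compounds added by pin tool, plates incubated ≥48 hr at 37 °C, then CellTiter-Glo added for 30 min at room temperature before luminescence reading. Line: DT40 Tdp1-/- complemented with hTDP1; camptothecin omitted.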
# An asterisk follows results filed as active; ? = inconclusive; · = no result. Shown are actives, neighbours in structure and some others; about 16% of the full set was active somewhere. Unless noted, calls come from the whole dose curve; as a rule, active = well fitted curve in the direction sought with a large enough effect; inconclusive = small, poorly fitted or top-dose-only effect, or another doubt; inactive = no such curve, though single readings can be large; an effect the other way counts as inactive or inconclusive.
compound	TDP1 block	DT40 TDP1 CPT	miR-21 reporter	uPA generation	TDP1 cell noCPT
CCOc1ccc(OCC)c(S(=O)(=O)NCCOC23CC4CC(CC(C4)C2)C3)c1	0%	?	21%	-8%	13µM*
COc1cc(S(=O)(=O)NCCOC23CC4CC(CC(C4)C2)C3)c(OC)cc1Cl	5%	15µM*	0%	1%	10µM*
CNS(=O)(=O)c1cccc2nsnc12	8%	-12%	-3%	-1%	0.0073µM*
COc1cc(S(=O)(=O)NC2CC(C)(C)NC(C)(C)C2)c(OC)cc1Cl	·	0%	-2%	-2%	-18%
Cc1nc(SCc2ccccc2F)c2cnn(-c3ccccc3)c2n1	-5%	·	-18%	·	·
CN(C(=O)CSc1nc2ccc(NC(=O)CCc3ccccc3)cc2s1)c1ccccc1	6%	18µM*	?	·	15µM*
CN1CCN(C(=O)CSc2nc3ccc(NC(=O)c4ccccc4F)cc3s2)CC1	·	?	-18%	?	?
CN(C(=O)CSc1nc2ccc(NC(=O)COc3ccc(F)cc3)cc2s1)c1ccccc1	4%	5.8µM*	?	·	4.6µM*
COc1ccc(C(=O)Nc2ccc3nc(SCC(=O)N(C)c4ccccc4)sc3c2)cc1	5%	?	-7%	·	16µM*
Cc1cccc(NC(=O)CSc2nc3ccc(NC(=O)CCc4ccccc4)cc3s2)c1	-4%	?	-2%	·	?
CN(C(=O)CSc1nc2ccc(NC(=O)c3ccc(F)cc3)cc2s1)c1ccccc1	4%	16µM*	?	·	15µM*
O=c1c2ccccc2nc2n1C(CSc1ccc(Br)cc1)CN2 (configuration not stated)	10%	-14%	-1%	-3%	-23%
Cc1cccc(CCNc2nc3ccc(C)cc3n3cnnc23)c1	·	-18%	-70%	0%	0%
CC(Oc1ccccc1)C(=O)Nc1nnc2n1CCS2 (configuration not stated)	-2%	-15%	1%	·	-4%
O=C(CCNc1ccc(F)cc1)c1cc2ccccc2o1	8%	8.2µM*	1%	4%	16µM*
O=C(Cc1cc2ccccc2o1)NCc1ccc(F)cc1	·	21µM*	9%	?	23µM*
O=C(CCNc1cccc(F)c1)c1cc2ccccc2o1	6%	16µM*	-6%	-5%	15µM*
O=C(Cc1ccc(F)cc1)OCC(=O)c1cc2ccccc2o1	-4%	-10%	-2%	-6%	-15%
Cc1ccc([C@@H]2CC(=O)[C@@H]3CN(S(=O)(=O)c4ccc(C)cc4)[C@H](c4cccc(Cl)c4)C[C@@H]3N2S(=O)(=O)c2ccc(Cl)cc2)cc1	·	5%	·	·	-25%
Cc1cc(C)c2c(=O)[nH]c(SCc3ccccc3C)nc2n1	-1%	3%	0%	1%	7%
Cc1occc1C(=O)N=Nc1c(O)[nH]c2ccc(Br)cc12	3%	·	-52%	·	·
O=[N+]([O-])c1cccc(COc2cccc(CN3CCCC3)c2)c1	·	?	·	-7%	?
C[C@@H](C(=O)NCC1CC1)[C@H]1C[C@]1(C)[C@H](NC(=O)OCc1ccccc1)c1ccccc1	8%	26µM*	0%	0%	?
C[C@@H](C(=O)NCc1cccc2ccccc12)[C@H]1C[C@]1(C)[C@H](NC(=O)OCc1ccccc1)c1ccccc1	-3%	·	·	·	·
C[C@@H](C(=O)Nc1ccc2ccccc2c1)[C@H]1C[C@]1(C)[C@H](NS(=O)(=O)c1ccccc1)c1ccccc1	4%	?	9%	-9%	21µM*
C[C@@H](C(=O)NCc1ccccc1)[C@@H]1C[C@@]1(C)[C@@H](NC(=O)OCc1ccccc1)c1ccccc1	-4%	16µM*	12%	-20%	?
C[C@@H](C(=O)NCc1ccc(S(C)(=O)=O)cc1)[C@H]1C[C@]1(C)[C@H](NC(=O)OCc1ccccc1)c1ccccc1	5%	?	13%	-7%	?
C[C@@H](C(=O)Nc1ccc2ccccc2c1)[C@H]1C[C@]1(C)[C@H](NP(=O)(c1ccccc1)c1ccccc1)c1ccccc1	7%	·	22%	·	·
Cc1ccc(CNC(=O)[C@H](C)[C@H]2C[C@]2(C)[C@H](NC(=O)OCc2ccccc2)c2ccccc2)o1	4%	?	8%	-12%	16µM*
Cn1ccnc1C(=O)c1ccc(NN)c([N+](=O)[O-])c1	11%	17%	-9%	-9%	19%
C[C@@H](C(=O)Nc1ccc2ccccc2c1)[C@@H]1C[C@@]1(C)[C@@H](NC(=O)c1cnccn1)c1ccccc1	-7%	26µM*	0%	0%	?
C[C@@H](C(=O)NCCc1c[nH]c2ccccc12)[C@@H]1C[C@@]1(C)[C@@H](NC(=O)OCc1ccccc1)c1ccccc1	4%	13µM*	24%	5%	18µM*
COc1ccccc1CNC(=O)C(Cc1c[nH]c2ccccc12)NC(=O)OCc1ccccc1 (configuration not stated)	4%	?	11%	-7%	18µM*
COCCNC(=O)[C@H](C)[C@H]1C[C@]1(C)[C@H](NC(=O)OCc1ccccc1)c1ccccc1	-11%	?	0%	0%	?
C[C@@H](C(=O)Nc1ccc2ccccc2c1)[C@@H]1C[C@@]1(C)[C@@H](NC(=O)OCc1ccccc1)c1ccccc1	4%	?	5%	5%	16µM*
C[C@@H](C(=O)Nc1ccc2ccccc2c1)[C@H]1C[C@]1(C)[C@H](NC(=O)c1cnccn1)c1ccccc1	0%	?	4%	5%	?
CCOC(=O)CSc1nnc(-c2ccc(OC)cc2OC)o1	10%	-7%	7%	9%	1%
C[C@@H](C(=O)NCc1ccccn1)[C@@H]1C[C@@]1(C)[C@@H](NC(=O)OCc1ccccc1)c1ccccc1	-1%	23µM*	-1%	0%	13µM*
CNC(=O)[C@H](C)[C@@H]1C[C@@]1(C)[C@@H](NC(=O)OCc1ccccc1)c1ccccc1	0%	?	1%	-3%	-25%
CCOC(=O)Nc1ccc2c(c1)N(C(=O)CCN(C)C)c1ccccc1CC2	·	-13%	5%	-7%	-5%
CCOC(=O)Nc1ccc2c(c1)N(C(=O)OCCN(C)C)c1ccccc1CC2	0%	18µM*	-9%	-13%	?
COc1ccc(-c2csc3ncnc(Sc4nnnn4C)c23)cc1	5%	·	·	?	·
Cc1sc2ncnc(Sc3nnnn3-c3ccccc3)c2c1C	-5%	5.8µM*	?	?	7.1µM*
Cc1ccc(C)c(-n2nnnc2Sc2nnnn2-c2ccccc2)c1	4%	?	?	-15%	13µM*

# Given field by field: part of the list above
> CCOC(=O)Nc1ccc2c(c1)N(C(=O)OCCN(C)C)c1ccccc1CC2
- TDP1 block = 0%
- DT40 TDP1 CPT = 18µM*
- miR-21 reporter = -9%
- uPA generation = -13%
- TDP1 cell noCPT = ?

> Cc1ccc(C)c(-n2nnnc2Sc2nnnn2-c2ccccc2)c1
- TDP1 block = 4%
- DT40 TDP1 CPT = ?
- miR-21 reporter = ?
- uPA generation = -15%
- TDP1 cell noCPT = 13µM*

> COc1ccc(-c2csc3ncnc(Sc4nnnn4C)c23)cc1
- TDP1 block = 5%
- DT40 TDP1 CPT = ·
- miR-21 reporter = ·
- uPA generation = ?
- TDP1 cell noCPT = ·
